Where a name gives a salt, the structure may show the parent alone.
These molecules were tested against human α7 nAChRs transiently expressed in Xenopus laevis oocytes (Homo sapiens (Human), UniProt P36544) (assay: Oocyte electrophysiology screen (TEVC)). Conditions: 0.01 mM test compound, peak current relative to 0.2 mM ACh; hydrochloride.
Format: cell-based
Protocol: Oocyte Electrophysiology Screen (% ACh @ 10 μM Oocyte)
The Oocyte Electrophysiology Screen studies were performed under contract by HiQScreen Geneva, Switzerland. All experiments were carried out at human α7 nAChRs transiently expressed in Xenopus laevis oocytes using the method of cDNA expression. Currents evoked by acetylcholine or other agonist ligands were recorded using the standard two-electrode voltage-clamp configuration (TEVC). X. laevis oocytes were prepared and injected using standard procedures. Briefly, ovaries were harvested from X. laevis females that were deeply anesthetized and pithed following the animal rights rule from the Geneva canton. A small piece of ovary was isolated for immediate preparation while the remaining part was placed at 4° C. in a sterile Barth solution containing in mM: NaCl 88, KCl 1, NaHCO3 2.4, HEPES 10, MgSO4.7H2O 0.82, Ca(NO3)2.4H2O 0.33, CaCl2.6H2O 0.41, at pH 7.4, and supplemented with 20 μg/mL of kanamycin, 100 unit/mL penicillin and 100 μg/mL streptomycin. […] Cells were held at −80 mV. Data were filtered at 10 Hz, captured at 100 Hz and analyzed using proprietary data acquisition and analysis software running under Matlab (Mathworks Inc.).
Experimental Protocol and Analysis
After establishing a baseline transmembrane current, acetylcholine (ACh) was applied for 5 seconds at a concentration of 0.2 mM to establish a control ACh-evoked current response. Following a wash period of 90 s in OR2 medium (free of ACh), cells were then exposed for 30 s to the test compound applied at 0.01 mM. The same reference ACh test pulse was immediately given at the end of the compound exposure and again after 90 s of recovery in OR2 Medium (free of ACh or test compound). All data were determined in triplicate. The response evoked by the test compound was expressed as a percentage of that evoked by ACh: Response (% ACh)=100×(Itest/IACh) where Itest is the peak inward current measured during exposure to 0.01 mM of test compound and IACh is the peak inward current measured in the presence of ACh.

Chains of the proteins cited; added tags and fusions are not shown. Residues count along the entry.
UniProt P36544, 23-502 limits assumed: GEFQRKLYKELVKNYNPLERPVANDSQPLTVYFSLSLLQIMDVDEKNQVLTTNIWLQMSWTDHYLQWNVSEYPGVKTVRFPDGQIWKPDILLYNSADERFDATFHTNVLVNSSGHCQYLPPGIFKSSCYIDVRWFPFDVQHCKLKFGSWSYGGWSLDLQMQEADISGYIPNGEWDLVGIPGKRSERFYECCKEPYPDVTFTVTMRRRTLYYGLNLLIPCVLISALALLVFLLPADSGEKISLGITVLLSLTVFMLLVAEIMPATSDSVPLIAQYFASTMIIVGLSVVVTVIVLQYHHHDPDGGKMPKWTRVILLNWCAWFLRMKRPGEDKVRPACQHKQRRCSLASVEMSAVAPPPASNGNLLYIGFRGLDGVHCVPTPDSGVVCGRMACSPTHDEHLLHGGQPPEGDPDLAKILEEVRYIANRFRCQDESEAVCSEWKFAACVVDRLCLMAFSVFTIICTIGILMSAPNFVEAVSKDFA

Structure (SMILES) | % ACh @ 10 μM Oocyte [% ACh]
CC1(C)C(NC(=O)c2ccc(Cl)cc2)C2CCN1CC2 (single isomer, unassigned; enantiomer1) [2a, 4-chloro-N-(2,2-dimethylquinuclidin-3-yl)benzamide-enantiomer1 hydrochloride] | 246
O=C(NC1C2CCN(CC2)C12CC2)c1ccc(Cl)cc1 (single isomer, unassigned; enantiomer1) [55a, 4-chloro-N-(1′-azaspiro[cyclopropane-1,2′-bicyclo[2.2.2]octan]-3′-yl)benzamide-enantiomer1 hydrochloride] | 3
CC1(C)C(NC(=O)c2ccc(Cl)cc2)C2CCN1CC2 (single isomer, unassigned; enantiomer2) [2b, 4-chloro-N-(2,2-dimethylquinuclidin-3-yl)benzamide-enantiomer2 hydrochloride] | 2
O=C(NC1C2CCN(CC2)C12CC2)c1ccc(Cl)cc1 (single isomer, unassigned; enantiomer2) [55b, 4-chloro-N-(1′-azaspiro[cyclopropane-1,2′-bicyclo[2.2.2]octan]-3′-yl)benzamide-enantiomer2 hydrochloride] | 176

— patent US10183938B2, “Geminal substituted quinuclidine amide compounds as agonists of α-7 nicotonic acetylcholine receptors” (AXOVANT SCIENCES GMBH, priority 2014, dated 2019)
